Reference: ChEMBL document CHEMBL1152196, “Benzimidazole- and benzoxazole-based inhibitors of Rho kinase” (Bioorg Med Chem Lett, 2008)

By UniProt entry, the sequences of proteins in these tests, tags left out. Where a name states a change or a piece, a line headed by the entry shows the natural chain unless it says otherwise.
UniProt O75116: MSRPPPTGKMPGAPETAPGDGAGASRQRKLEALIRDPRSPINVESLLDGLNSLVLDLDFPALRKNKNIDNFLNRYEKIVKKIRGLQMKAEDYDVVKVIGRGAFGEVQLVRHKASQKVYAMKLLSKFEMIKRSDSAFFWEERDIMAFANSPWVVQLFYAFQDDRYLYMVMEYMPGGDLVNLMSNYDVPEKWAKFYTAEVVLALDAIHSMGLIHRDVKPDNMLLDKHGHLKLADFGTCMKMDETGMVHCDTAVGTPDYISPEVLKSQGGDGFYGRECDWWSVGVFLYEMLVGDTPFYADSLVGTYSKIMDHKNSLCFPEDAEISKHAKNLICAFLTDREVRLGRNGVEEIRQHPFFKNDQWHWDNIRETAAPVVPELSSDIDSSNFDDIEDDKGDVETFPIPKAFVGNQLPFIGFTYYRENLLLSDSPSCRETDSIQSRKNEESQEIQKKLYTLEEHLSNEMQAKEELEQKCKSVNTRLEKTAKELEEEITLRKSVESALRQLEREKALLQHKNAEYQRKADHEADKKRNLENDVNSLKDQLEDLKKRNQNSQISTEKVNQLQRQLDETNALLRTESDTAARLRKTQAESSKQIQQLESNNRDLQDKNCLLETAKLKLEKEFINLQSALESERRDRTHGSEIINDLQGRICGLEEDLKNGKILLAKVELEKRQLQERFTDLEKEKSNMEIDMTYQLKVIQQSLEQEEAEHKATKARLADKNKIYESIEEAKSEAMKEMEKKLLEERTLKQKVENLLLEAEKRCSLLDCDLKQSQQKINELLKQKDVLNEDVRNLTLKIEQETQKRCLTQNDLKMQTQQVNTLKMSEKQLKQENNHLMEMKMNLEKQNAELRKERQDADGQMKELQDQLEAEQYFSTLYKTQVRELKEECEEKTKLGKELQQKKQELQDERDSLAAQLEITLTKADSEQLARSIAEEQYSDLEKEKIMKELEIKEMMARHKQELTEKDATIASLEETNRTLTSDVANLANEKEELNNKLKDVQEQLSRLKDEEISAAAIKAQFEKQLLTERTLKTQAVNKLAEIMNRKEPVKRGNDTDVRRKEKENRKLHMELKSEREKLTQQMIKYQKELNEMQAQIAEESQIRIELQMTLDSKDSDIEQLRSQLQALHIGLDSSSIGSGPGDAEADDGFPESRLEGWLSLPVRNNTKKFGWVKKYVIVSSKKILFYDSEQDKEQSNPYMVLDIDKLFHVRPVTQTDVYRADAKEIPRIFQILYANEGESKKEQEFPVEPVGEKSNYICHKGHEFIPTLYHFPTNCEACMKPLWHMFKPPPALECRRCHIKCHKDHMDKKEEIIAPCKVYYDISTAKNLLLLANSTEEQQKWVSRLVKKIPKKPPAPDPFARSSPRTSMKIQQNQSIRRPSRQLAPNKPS

Target: Rho-associated protein kinase 2 (Homo sapiens, UniProt O75116)
Experiment: Inhibition of ROCK2

IC50: 2 nM
Compound: COc1ccc2c(c1)CC(c1nc3ccc(-c4ccnc(N)n4)cc3[nH]1)CO2 (stereo unspecified)
